In this test the test system is Human immunodeficiency virus 1. Put plainly: Ratio of EC50 for HIV1 Rev-mediated renilla luciferase expression to TC50 for HIV1 Rev-mediated firefly luciferase expression.

Molecules are shown by their SMILES.

Regarding `COc1ccc2nc(C(F)(F)F)c(C#N)c(N)c2c1`, the Ratio is 10.

(Values after ChEMBL document CHEMBL1687710, “Heterocyclic compounds that inhibit Rev-RRE function and human immunodeficiency virus type 1 replication” (Antimicrob Agents Chemother, 2008).)
